Consider 2 compounds from ChEMBL document CHEMBL4819022, “Discovery of JNJ-63576253: A Clinical Stage Androgen Receptor Antagonist for F877L Mutant and Wild-Type Castration-Resistant Prostate Cancer (mCRPC)” (J Med Chem, 2021).

Amino acid sequences for entries named in this document (tags omitted).
UniProt P10275, whole entry F877L: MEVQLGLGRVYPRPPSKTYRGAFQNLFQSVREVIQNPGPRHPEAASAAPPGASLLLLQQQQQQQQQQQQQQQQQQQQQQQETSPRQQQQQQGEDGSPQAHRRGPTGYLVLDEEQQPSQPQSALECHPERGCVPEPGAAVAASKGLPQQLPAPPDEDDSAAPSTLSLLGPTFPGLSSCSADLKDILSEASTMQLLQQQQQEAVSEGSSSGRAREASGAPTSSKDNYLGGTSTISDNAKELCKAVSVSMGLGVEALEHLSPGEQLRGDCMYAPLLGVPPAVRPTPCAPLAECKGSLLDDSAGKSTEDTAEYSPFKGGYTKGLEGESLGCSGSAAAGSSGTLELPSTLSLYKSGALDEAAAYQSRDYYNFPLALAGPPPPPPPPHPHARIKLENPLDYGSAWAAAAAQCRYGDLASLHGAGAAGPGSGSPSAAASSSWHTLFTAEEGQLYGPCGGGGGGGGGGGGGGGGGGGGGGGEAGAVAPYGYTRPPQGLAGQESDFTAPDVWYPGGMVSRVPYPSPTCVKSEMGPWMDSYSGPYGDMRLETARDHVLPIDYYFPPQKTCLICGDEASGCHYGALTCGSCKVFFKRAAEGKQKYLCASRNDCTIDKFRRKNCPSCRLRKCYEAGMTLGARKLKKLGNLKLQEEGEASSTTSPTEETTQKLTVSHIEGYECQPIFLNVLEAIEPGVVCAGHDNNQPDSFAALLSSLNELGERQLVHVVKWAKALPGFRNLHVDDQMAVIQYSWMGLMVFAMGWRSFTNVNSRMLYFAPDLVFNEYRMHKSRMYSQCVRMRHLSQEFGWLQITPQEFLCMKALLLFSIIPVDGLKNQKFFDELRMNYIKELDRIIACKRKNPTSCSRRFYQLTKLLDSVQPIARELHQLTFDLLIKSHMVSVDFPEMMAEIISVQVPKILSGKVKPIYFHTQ

SMILES strings stand for the structures. pIC50, pKi: −log10 of the molar value.

The test system of assay [1] is Androgen receptor (Homo sapiens), P10275 [F877L]. In words: Antagonist activity at AR F877L mutant (unknown origin) transfected in human LNCAP cells cotransfected with ARE-LUC incubated for 20 to 24 hrs in presence of AR agonist R1881 by steady-glo luciferase reporter gene assay relative to control. The following applies: filed as antagonist, time 20-24 hrs. In kind it is cell-based.

For assay [2] the test system is unchanged. The conditions noted are these: HepG2, dose 300.0 nM, time 48.0 hrs.
In assay [3] the target is T1, Androgen receptor (Homo sapiens, UniProt P10275). In words: biochemical. It is filed as cell-based, LNCaP.
Assay [4] has as its target T1, Androgen receptor. In words: biochemical. It is filed as cell-based, LNCaP. This is another data set of the same source.

In the case of `N#Cc1ncc(N2C(=O)C3(CCC3)N(c3ccc(OC4CCNCC4)cc3)C2=S)cc1C(F)(F)F`, the Imax in assay [1] is over 90%.

The term Emax denotes the greatest response seen or fitted, relative to the assay's reference. The term pKi denotes −log10 of the Ki, conventionally taken in molar units. The low end stands for a large Ki, the high end for a small Ki. What is called pIC50 is −log10 of the IC50, conventionally taken in molar units. Read a low pIC50 as a high IC50. In the case of `CN1CCC(Oc2ccc(N3C(=S)N(c4cnc(C#N)c(C(F)(F)F)c4)C(=O)C34CCC4)cc2)CC1`, the Emax in assay [2] came to 10%. Besides, the Imax in assay [1] was over 90%. Also, the negative-log Ki (pKi) on Androgen receptor [3] is 8.08. For the same compound, the pIC50 at Androgen receptor [4] is 7.72.
